According to PubChem BioAssay (NCI):
Values joined by “and” are separate entries in the source; they are usually repeats but may differ in a detail not shown here. Equal entries are not always repeated. The entries are a selection whose mix differs from that of the whole data set. Active and inactive are the calls of the source. Cut-off read from the data, not from the text of the source: active = growth inhibition above about 70%; inactive = the rest.

Legend:
[1] = NCI Yeast Anticancer Drug Screen. Data for the rad50 strain (AID 155);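 note: 0% = growth of vehicle-only cultures of the same strain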; details: S. cerevisiae rad50 strain growth inhibition; at 50.0 µM; stronger effect = higher value
[2] = NCI Yeast Anticancer Drug Screen. Data for the mec2-1 strain (AID 157); details: S. cerevisiae mec2-1 strain, at 50.0 µM, stronger effect = higher value
[3] = NCI Yeast Anticancer Drug Screen. Data for the sgs1 mgt1 strain (AID 161);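 note: 0% = growth of cultures given vehicle only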; details: S. cerevisiae sgs1 mgt1 strain, at 50.0 µM, stronger effect = higher value
[4] = NCI Yeast Anticancer Drug Screen. Data for the cln2 rad14 strain (AID 165);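 note: 0% = growth equal to vehicle treated cultures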; details: S. cerevisiae cln2 rad14 strain, at 50.0 µM, stronger effect = higher value
[5] = NCI Yeast Anticancer Drug Screen. Data for the bub3 strain (AID 167); details: S. cerevisiae bub3 mutant strain, at 50.0 µM, stronger effect = higher value
[6] = NCI Yeast Anticancer Drug Screen. Data for the mlh1 rad18 strain (AID 175); details: S. cerevisiae mlh1 rad18 strain growth inhibition; at 50.0 µM; stronger effect = higher value

SMILES: O=CCCCc1ccc(N(CCCl)CCCl)cc1
- growth inhibition [1]: inactive: -1.75%
- growth inhibition [2]: inactive: -6.4%
- growth inhibition [3]: inactive: -6.5%
- growth inhibition [4]: inactive: -1.65%
- growth inhibition [5]: inactive: 6.8%
- growth inhibition [6]: inactive: 30.7%

SMILES: O=P(Cl)(Cl)CCCl
- growth inhibition [1]: inactive: -2.3%
- growth inhibition [2]: inactive: -16.8%
- growth inhibition [3]: inactive: -1.45%
- growth inhibition [4]: inactive: -6.5%
- growth inhibition [5]: inactive: -9.3%
- growth inhibition [6]: inactive: -0.2%

SMILES: BrCCN(CCBr)c1ccccc1
- growth inhibition [1]: inactive: 4.75%
- growth inhibition [2]: inactive: -6.5%
- growth inhibition [3]: inactive: 6.3%
- growth inhibition [4]: inactive: 11%
- growth inhibition [5]: inactive: -2.85%
- growth inhibition [6]: inactive: 18.1%

SMILES: Cc1ccccc1NC1(C#N)CCN(Cc2ccccc2)CC1
- growth inhibition [1]: inactive: -0.95%
- growth inhibition [2]: inactive: -32.8%
- growth inhibition [3]: inactive: -11.9%
- growth inhibition [4]: inactive: 23.9%
- growth inhibition [5]: inactive: -13.8%
- growth inhibition [6]: inactive: 7.3%

SMILES: CC(C)NCCCl
- growth inhibition [1]: inactive: 20.6%
- growth inhibition [2]: inactive: -6.95%
- growth inhibition [3]: inactive: 3.55%
- growth inhibition [4]: inactive: 9.8%
- growth inhibition [5]: inactive: 7.3%
- growth inhibition [6]: inactive: 11.8%

SMILES: COc1cc(CN(CCCl)CCBr)cc(OC)c1OC
- growth inhibition [1]: inactive: -15.8%
- growth inhibition [2]: inactive: -5.35%
- growth inhibition [3]: inactive: -27.8%
- growth inhibition [4]: inactive: -63.5%
- growth inhibition [5]: inactive: 10.4%
- growth inhibition [6]: inactive: -25.2%

SMILES: N#CC(C#N)=Cc1ccc2c(c1)OCO2
- growth inhibition [1]: inactive: 26.2% and inactive: -6.35%
- growth inhibition [2]: inactive: 4.9% and inactive: 15.3%
- growth inhibition [3]: inactive: 12.6% and inactive: 27.1%
- growth inhibition [4]: inactive: 12.2% and inactive: -34.6%
- growth inhibition [5]: inactive: -0.65% and inactive: -2.15%
- growth inhibition [6]: inactive: 12.7% and inactive: -4.75%

SMILES: COc1cccc(CN(CCCl)CCCl)c1OC
- growth inhibition [1]: inactive: -4.35%
- growth inhibition [2]: inactive: -3.45%
- growth inhibition [3]: inactive: -0.75%
- growth inhibition [4]: inactive: 22.6%
- growth inhibition [5]: inactive: -0.15%
- growth inhibition [6]: inactive: -2.7%

SMILES: O=CC(O)C(O)C(O)C(O)CN(CCCl)CCCl (centres undefined)
- growth inhibition [1]: inactive: -15.8%
- growth inhibition [2]: inactive: -10.6%
- growth inhibition [3]: inactive: 0.65%
- growth inhibition [4]: inactive: -0.55%
- growth inhibition [5]: inactive: -8.9%
- growth inhibition [6]: inactive: -69%

SMILES: Nc1nc2c(ncn2CCN(CCCl)CCCl)c(=O)[nH]1
- growth inhibition [1]: inactive: 18.4%
- growth inhibition [2]: inactive: -6.7%
- growth inhibition [3]: inactive: 3.4%
- growth inhibition [4]: inactive: -10.1%
- growth inhibition [5]: inactive: -12.8%
- growth inhibition [6]: inactive: 23.3%

SMILES: CC1CC(C)OP(=O)(N(CCCl)CCCl)N1 (centres undefined)
- growth inhibition [1]: inactive: -9.7%
- growth inhibition [2]: inactive: -11.4%
- growth inhibition [3]: inactive: -24.9%
- growth inhibition [4]: inactive: -34.9%
- growth inhibition [5]: inactive: -19.7%
- growth inhibition [6]: inactive: -18%

SMILES: Nc1cc(N)cc(N(CCCl)CCCl)c1
- growth inhibition [1]: inactive: 34.4%
- growth inhibition [2]: inactive: 10.1%
- growth inhibition [3]: inactive: 31.6%
- growth inhibition [4]: inactive: 31.1%
- growth inhibition [5]: inactive: 6.9%
- growth inhibition [6]: inactive: 42.9%

SMILES: ClCCN1[C@@H](CCl)CC[C@@H]1c1ccccc1
- growth inhibition [1]: inactive: 41.6%
- growth inhibition [2]: inactive: 18.1%
- growth inhibition [3]: inactive: 1.7%
- growth inhibition [4]: inactive: -7.75%
- growth inhibition [5]: inactive: -43.5%
- growth inhibition [6]: inactive: -10.5%

SMILES: O=C(Cl)c1ccc(N(CCCl)CCCl)cc1
- growth inhibition [1]: inactive: -3.05%
- growth inhibition [2]: inactive: 7.4%
- growth inhibition [3]: inactive: 5.7%
- growth inhibition [4]: inactive: -31.6%
- growth inhibition [5]: inactive: 6.05%
- growth inhibition [6]: inactive: 22.1%

SMILES: NC(=O)C1(Nc2ccccc2)CCNCC1
- growth inhibition [1]: inactive: -9.25%
- growth inhibition [2]: inactive: -15.1%
- growth inhibition [3]: inactive: -5.8%
- growth inhibition [4]: inactive: 7.95%
- growth inhibition [5]: inactive: -0.55%
- growth inhibition [6]: inactive: -6.15%

SMILES: [C-]#N.c1ccc([Te+](c2ccccc2)c2ccccc2)cc1
- growth inhibition [1]: inactive: 7.75%
- growth inhibition [2]: inactive: 7.35%
- growth inhibition [3]: inactive: -4.85%
- growth inhibition [4]: inactive: 10%
- growth inhibition [5]: inactive: -2.4%
- growth inhibition [6]: inactive: -25.4%

SMILES: O=[N+]([O-])c1ncc(N(CCCl)CCCl)s1
- growth inhibition [1]: inactive: 28.2%
- growth inhibition [2]: inactive: -2.4%
- growth inhibition [3]: inactive: 34.1%
- growth inhibition [4]: inactive: 1.8%
- growth inhibition [5]: inactive: -15%
- growth inhibition [6]: inactive: -5.95%

SMILES: NCCN(CCCl)CCCl
- growth inhibition [1]: inactive: -10.8%
- growth inhibition [2]: inactive: -28.6%
- growth inhibition [3]: inactive: -31.7%
- growth inhibition [4]: inactive: 2.15%
- growth inhibition [5]: inactive: -32.8%
- growth inhibition [6]: inactive: 28.4%

SMILES: O=[N+]([O-])c1ccc(C[N+]([O-])(CCCl)CCCl)cc1
- growth inhibition [1]: inactive: 21.2%
- growth inhibition [2]: inactive: 24.6%
- growth inhibition [3]: inactive: 57.5%
- growth inhibition [4]: inactive: 43.6%
- growth inhibition [5]: inactive: 44.5%
- growth inhibition [6]: inactive: 34.6%

SMILES: C[N+](CCCl)(CCCl)Cc1ccc([N+](=O)[O-])cc1
- growth inhibition [1]: inactive: 14.7%
- growth inhibition [2]: inactive: -22.1%
- growth inhibition [3]: inactive: -2.1%
- growth inhibition [4]: inactive: 6.35%
- growth inhibition [5]: inactive: -2.95%
- growth inhibition [6]: inactive: 15.8%

SMILES: ClCCN1CCC(C2CCN(CCCl)CC2)CC1
- growth inhibition [1]: inactive: -24.1%
- growth inhibition [2]: inactive: -9.35%
- growth inhibition [3]: inactive: -5.15%
- growth inhibition [4]: inactive: 9.7%
- growth inhibition [5]: inactive: -10.2%
- growth inhibition [6]: inactive: -58.3%

SMILES: ClCCN(CCCl)c1ccc(CN2CCCCC2)cc1
- growth inhibition [1]: inactive: 51.5%
- growth inhibition [2]: inactive: 0.65%
- growth inhibition [3]: inactive: 67.6%
- growth inhibition [4]: inactive: 59.5%
- growth inhibition [5]: inactive: 51.5%
- growth inhibition [6]: inactive: 63.7%

SMILES: OCC#CCN(CCBr)CCBr
- growth inhibition [1]: inactive: 9.3%
- growth inhibition [2]: inactive: -11.6%
- growth inhibition [3]: inactive: 14.3%
- growth inhibition [4]: inactive: 1%
- growth inhibition [5]: inactive: 32.5%
- growth inhibition [6]: inactive: -51.8%

SMILES: CCCCC#CCN(CCCl)CCCl
- growth inhibition [1]: inactive: 33.1%
- growth inhibition [2]: inactive: 22.6%
- growth inhibition [3]: inactive: 15.8%
- growth inhibition [4]: inactive: 40%
- growth inhibition [5]: inactive: -6.95%
- growth inhibition [6]: inactive: 43.1%

SMILES: CN1CC(C(C)(C)C)COP1(=O)N(CCCl)CCCl (centres undefined)
- growth inhibition [1]: inactive: 2.75%
- growth inhibition [2]: inactive: 2%
- growth inhibition [3]: inactive: -10.6%
- growth inhibition [4]: inactive: 7.55%
- growth inhibition [5]: inactive: 9.4%
- growth inhibition [6]: inactive: 13.2%

SMILES: C[N+](CCCl)(CCCl)Cc1ccc(S(C)(=O)=O)cc1
- growth inhibition [1]: inactive: -12.1%
- growth inhibition [2]: inactive: -17.2%
- growth inhibition [3]: inactive: -10.2%
- growth inhibition [4]: inactive: 6.45%
- growth inhibition [5]: inactive: -0.2%
- growth inhibition [6]: inactive: 3.8%

SMILES: COc1cc(CN(CCBr)CCBr)cc(OC)c1
- growth inhibition [1]: inactive: -6.4%
- growth inhibition [2]: inactive: -7.25%
- growth inhibition [3]: inactive: -14.7%
- growth inhibition [4]: inactive: -33.7%
- growth inhibition [5]: inactive: -4.25%
- growth inhibition [6]: inactive: -15.1%

SMILES: CC(C)OP(OC(C)C)OC(C)C
- growth inhibition [1]: inactive: 25.8%
- growth inhibition [2]: inactive: 15.9%
- growth inhibition [3]: inactive: 2.95%
- growth inhibition [4]: inactive: 20%
- growth inhibition [5]: inactive: 15.1%
- growth inhibition [6]: inactive: 18.2%

SMILES: [C-]#N.[C-]#N.[Ca+2]
- growth inhibition [1]: inactive: 12.5%
- growth inhibition [2]: inactive: 2.6%
- growth inhibition [3]: inactive: 1.1%
- growth inhibition [4]: inactive: 5.7%
- growth inhibition [5]: inactive: 8.9%
- growth inhibition [6]: inactive: -3.25%

SMILES: CC(C)=NOP(N)(=O)N(CCCl)CCCl (centres undefined)
- growth inhibition [1]: inactive: -18.3%
- growth inhibition [2]: inactive: -33.5%
- growth inhibition [3]: inactive: -24.6%
- growth inhibition [4]: inactive: -8.6%
- growth inhibition [5]: inactive: -36.6%
- growth inhibition [6]: inactive: -58.2%

SMILES: COc1ccc(N(CCCl)CCCl)cc1
- growth inhibition [1]: inactive: 1.7%
- growth inhibition [2]: inactive: 0.7%
- growth inhibition [3]: inactive: -13.4%
- growth inhibition [4]: inactive: -9%
- growth inhibition [5]: inactive: -21.1%
- growth inhibition [6]: inactive: -16.2%

SMILES: S=C=Nc1ccc(N(CCCl)CCCl)cc1
- growth inhibition [1]: inactive: -0.05%
- growth inhibition [2]: inactive: -2.1%
- growth inhibition [3]: inactive: -4.7%
- growth inhibition [4]: inactive: 30.5%
- growth inhibition [5]: inactive: 4.4%
- growth inhibition [6]: inactive: 6.5%

SMILES: Cc1cccc(NC2(C#N)CCN(Cc3ccccc3)CC2)c1
- growth inhibition [1]: inactive: 18.7%
- growth inhibition [2]: inactive: -32.9%
- growth inhibition [3]: inactive: 11.8%
- growth inhibition [4]: inactive: 43.5%
- growth inhibition [5]: inactive: 3%
- growth inhibition [6]: inactive: 7.1%

SMILES: C[N+](CCCl)(CCCl)Cc1cccc([N+](=O)[O-])c1
- growth inhibition [1]: inactive: -46%
- growth inhibition [2]: inactive: -56.5%
- growth inhibition [3]: inactive: -32%
- growth inhibition [4]: inactive: -3.75%
- growth inhibition [5]: inactive: -18.2%
- growth inhibition [6]: inactive: -18.8%

SMILES: ClCCN(CCCl)c1cccc(CN2CCOCC2)c1
- growth inhibition [1]: inactive: 59.7%
- growth inhibition [2]: inactive: 57.9%
- growth inhibition [3]: active: 79.7%
- growth inhibition [4]: inactive: 68.3%
- growth inhibition [5]: inactive: 55%
- growth inhibition [6]: active: 71.2%

SMILES: Cc1oc2ccccc2c(=O)c1CN(CCCl)CCCl
- growth inhibition [1]: inactive: -10.2%
- growth inhibition [2]: inactive: -23%
- growth inhibition [3]: inactive: 0.05%
- growth inhibition [4]: inactive: -4.15%
- growth inhibition [5]: inactive: -11.8%
- growth inhibition [6]: inactive: -19.9%

SMILES: C1CCC(NC2CCCCC2)CC1.O=C(O)C(O)c1ccc(N(CCCl)CCCl)cc1 (centres undefined)
- growth inhibition [1]: inactive: 1.4%
- growth inhibition [2]: inactive: 6.15%
- growth inhibition [3]: inactive: 19.8%
- growth inhibition [4]: inactive: 2.95%
- growth inhibition [5]: inactive: 5.6%
- growth inhibition [6]: inactive: 37.9%

SMILES: CC(=O)N(c1ccccc1)C1CCNCC1
- growth inhibition [1]: inactive: -9.55%
- growth inhibition [2]: inactive: -17.4%
- growth inhibition [3]: inactive: 7.4%
- growth inhibition [4]: inactive: 8.05%
- growth inhibition [5]: inactive: -7.6%
- growth inhibition [6]: inactive: -11.4%

SMILES: CCOC(=O)N1CCC(=O)CC1
- growth inhibition [1]: inactive: 2.1%
- growth inhibition [2]: inactive: -9.25%
- growth inhibition [3]: inactive: 8.95%
- growth inhibition [4]: inactive: 4.45%
- growth inhibition [5]: inactive: 7.8%
- growth inhibition [6]: inactive: 17.4%
